From US8952023B1, “Compounds useful for treating injuries from warfare agents” (dated 2015)
Where two headings read alike, the source gives them in different places.

The chains behind the UniProt entries cited, without tags or fusion partners.
UniProt O75762, whole entry, looked up: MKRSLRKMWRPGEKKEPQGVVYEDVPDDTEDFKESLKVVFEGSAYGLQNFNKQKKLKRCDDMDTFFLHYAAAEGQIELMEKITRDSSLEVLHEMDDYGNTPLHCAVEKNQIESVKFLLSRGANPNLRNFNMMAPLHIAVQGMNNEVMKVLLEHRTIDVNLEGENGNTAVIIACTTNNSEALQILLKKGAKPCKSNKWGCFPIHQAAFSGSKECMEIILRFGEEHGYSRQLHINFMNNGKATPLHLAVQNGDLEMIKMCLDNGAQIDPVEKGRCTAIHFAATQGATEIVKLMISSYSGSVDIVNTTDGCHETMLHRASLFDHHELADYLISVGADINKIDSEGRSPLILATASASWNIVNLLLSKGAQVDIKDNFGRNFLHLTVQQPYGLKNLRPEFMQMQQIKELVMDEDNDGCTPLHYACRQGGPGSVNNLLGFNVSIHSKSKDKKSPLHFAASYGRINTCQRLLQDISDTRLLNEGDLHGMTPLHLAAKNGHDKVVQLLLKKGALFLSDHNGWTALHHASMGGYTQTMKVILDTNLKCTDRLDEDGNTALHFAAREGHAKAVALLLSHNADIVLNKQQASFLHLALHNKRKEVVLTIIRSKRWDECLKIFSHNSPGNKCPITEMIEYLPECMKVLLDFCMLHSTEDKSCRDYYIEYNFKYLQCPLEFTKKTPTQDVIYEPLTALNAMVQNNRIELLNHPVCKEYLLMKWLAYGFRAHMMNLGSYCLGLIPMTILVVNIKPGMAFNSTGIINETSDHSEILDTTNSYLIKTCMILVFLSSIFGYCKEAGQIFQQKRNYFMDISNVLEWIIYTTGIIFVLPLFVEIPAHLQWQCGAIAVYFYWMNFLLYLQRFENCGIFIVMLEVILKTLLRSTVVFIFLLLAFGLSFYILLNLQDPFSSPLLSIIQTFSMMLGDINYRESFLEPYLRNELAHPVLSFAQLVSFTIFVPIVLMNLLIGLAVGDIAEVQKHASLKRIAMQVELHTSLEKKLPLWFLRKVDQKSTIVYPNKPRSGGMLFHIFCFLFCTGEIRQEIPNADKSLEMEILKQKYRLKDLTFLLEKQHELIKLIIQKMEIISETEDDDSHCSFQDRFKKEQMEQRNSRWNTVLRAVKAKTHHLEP

Target: human TRPA1 (Homo sapiens, UniProt O75762)
Assay: Whole-cell patch clamp experiments, block of TRPA1 current in the continued presence of AITC
[1] = read-out: Activity (IC50), the 2nd table, scaffold drawing 20
[2] = read-out: Activity (IC50), the 1st table, scaffold drawing 19

SMILES | IC50 [1] | also measured
O=C1C2=C(NC(=S)NC2c2cc(O)ccc2Br)c2cc(O)ccc21 (stereo not drawn) | > 1000 nM | 
COc1ccc(C2NC(=S)NC3=C2C(=O)c2ccccc23)cc1 (stereo not drawn) |  | IC50 [2]: 100 to 500 nM
O=C1C2=C(NC(=S)NC2c2cc(O)ccc2Br)c2ccc(Cl)cc21 (stereo not drawn) | > 1000 nM | 
O=C1C2=C(NC(=S)NC2c2ccccc2F)c2ccccc21 (stereo not drawn) |  | IC50 [2]: 100 to 500 nM
COCCCOc1cccc(C2NC(=S)NC3=C2C(=O)c2ccccc23)c1 (stereo not drawn) |  | IC50 [2]: 100 to 500 nM
O=C1C2=C(NC(=S)NC2c2cc(O)ccc2Br)c2ccc(O)cc21 (stereo not drawn) | > 1000 nM | 
O=C1C2=C(NC(=S)NC2c2cc(O)ccc2Br)c2cccc(Cl)c21 (stereo not drawn) | < 100 nM | 
CCCCc1cccc(C2NC(=O)NC3=C2C(=O)c2cccnc23)c1 (stereo not drawn) |  | IC50 (read-out: Activity (IC50), the 9th table, scaffold drawing 34): 100 to 500 nM
C#CCOc1cccc(C2NC(=O)NC3=C2C(=O)c2ccccc23)c1 (stereo not drawn) |  | IC50 (read-out: Activity (IC50), the 5th table, scaffold drawing 23): 100 to 500 nM
Cc1ccc2c(c1)C(=O)C1=C2NC(=S)NC1c1cc(O)ccc1Br (stereo not drawn) | 500 to 1000 nM | 
O=C1C2=C(NC(=S)NC2c2cc(O)ccc2Br)c2cccc(O)c21 (stereo not drawn) | > 1000 nM | 
O=C1NC2=C(C(=O)c3ccccc32)C(c2cccc3nonc23)N1 (stereo not drawn) |  | IC50 (read-out: Activity (IC50), the 6th table, scaffold drawing 24): > 1000 nM
